2 molecules from paper PMC4724290 (Synapse (New York, N.Y.), 2015) can be followed below.

Protein sequences, listed by entry. Tags and fused reporters are not part of them.
UniProt O55242, whole entry: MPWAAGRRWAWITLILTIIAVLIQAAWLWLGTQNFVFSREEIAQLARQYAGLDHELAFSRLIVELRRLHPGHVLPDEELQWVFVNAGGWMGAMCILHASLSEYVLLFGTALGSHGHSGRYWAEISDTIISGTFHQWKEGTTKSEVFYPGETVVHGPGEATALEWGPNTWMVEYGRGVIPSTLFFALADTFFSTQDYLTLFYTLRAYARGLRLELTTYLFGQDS

One assay has as its target σ1 receptors (Mus musculus, UniProt O55242). Nature of the assay: In vitro σ1 receptor binding, [^3H]. Details: species or system CD-1 mouse.
For a further assay, the target named is T1, σ2 receptors (Mus musculus, UniProt Q8VD00).
T1 sequence (Q8VD00 1-176): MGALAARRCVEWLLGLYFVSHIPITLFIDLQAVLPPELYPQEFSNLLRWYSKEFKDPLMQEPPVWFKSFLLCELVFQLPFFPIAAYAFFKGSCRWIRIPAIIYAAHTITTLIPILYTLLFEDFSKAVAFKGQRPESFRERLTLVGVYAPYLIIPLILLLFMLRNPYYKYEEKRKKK
Nature of the assay: In vitro σ2 receptor binding, [^3H]DTG/. Details: species or system CD-1 mouse.

“And” between values parts separate entries of the source, which are not always exact repeats. Equal values may be shown once.

As to `CC(C)=CCN1CC[C@]2(C)c3cc(O)ccc3C[C@H]1[C@H]2C` [[^3H](+)-Pentazocine], the Kd (in general, the concentration at which binding is half-saturated) on σ1 receptors (read-out: Equilibrium dissociation constant (Kd), σ1 receptors, saturation binding, 37 °C, 180 min) is 5.51 nM and 5.5 nM.
`CC(C)=CCN1CC[C@]2(C)c3cc(O)ccc3C[C@H]1[C@H]2C` [(+)-Pentazocine, (+)-pentazocine]: at σ2 receptors, the IC50 (usually the point on the concentration scale where inhibition reaches its midpoint) worked out at 2280 ± 167 nM and the Ki – broadly, a measure of affinity in units of concentration, obtained from inhibition or displacement – amounted to 2060 ± 151 nM. On σ1 receptors, this molecule returned an IC50 of 7.88 ± 0.53 nM and a Ki of 5.1 ± 0.34 nM.
